The target of this series is Human endopeptidase 24.11 (hNEP) (Homo sapiens, UniProt P08473). In words: in vitro. The following applies: isolated enzyme.

Amino acid sequences for entries named in this document (tags omitted). A change or cut given only in a name is not applied to a line headed by its entry.
UniProt P08473: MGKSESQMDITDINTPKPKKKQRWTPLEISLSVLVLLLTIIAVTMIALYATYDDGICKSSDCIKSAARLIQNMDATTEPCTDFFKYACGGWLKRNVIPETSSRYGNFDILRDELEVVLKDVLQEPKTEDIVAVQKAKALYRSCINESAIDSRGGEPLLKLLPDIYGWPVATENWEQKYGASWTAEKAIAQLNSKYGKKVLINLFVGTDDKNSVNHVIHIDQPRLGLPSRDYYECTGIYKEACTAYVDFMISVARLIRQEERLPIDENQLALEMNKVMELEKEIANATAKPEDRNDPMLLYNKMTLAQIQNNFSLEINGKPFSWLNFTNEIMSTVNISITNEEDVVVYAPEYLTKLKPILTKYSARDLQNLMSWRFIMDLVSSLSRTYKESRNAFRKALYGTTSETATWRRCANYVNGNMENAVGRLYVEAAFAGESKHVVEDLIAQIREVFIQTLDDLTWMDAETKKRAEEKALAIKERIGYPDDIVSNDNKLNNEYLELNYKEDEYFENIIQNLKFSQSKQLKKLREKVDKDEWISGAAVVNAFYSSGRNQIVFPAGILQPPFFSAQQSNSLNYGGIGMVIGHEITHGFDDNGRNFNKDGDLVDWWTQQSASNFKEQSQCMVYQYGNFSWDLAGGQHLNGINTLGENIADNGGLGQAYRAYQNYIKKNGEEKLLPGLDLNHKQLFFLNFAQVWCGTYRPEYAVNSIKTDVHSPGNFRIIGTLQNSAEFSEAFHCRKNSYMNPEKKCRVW

The term half-life denotes how long it takes for the measured level to halve. Higher therefore signals slow loss.

`CC[C@H](C)[C@@H]1NC(=O)[C@H](CCCN=C(N)N)NC(=O)[C@H](CC(=O)O)NC(=O)[C@H]([C@@H](C)CC)NC(=O)[C@H](CCCN=C(N)N)NC(=O)CNC(=O)CNC(=O)[C@H](Cc2ccccc2)NC(=O)[C@@H](NC(=O)[C@H](CO)NC(=O)[C@H](CO)NC(=O)[C@H](CCCN=C(N)N)NC(=O)[C@H](CCCN=C(N)N)NC(=O)[C@H](CC(C)C)NC(=O)[C@@H](N)CO)CSSC[C@@H](C(=O)N[C@@H](CC(N)=O)C(=O)N[C@@H](CO)C(=O)N[C@@H](Cc2ccccc2)C(=O)N[C@@H](CCCN=C(N)N)C(=O)N[C@@H](Cc2ccc(O)cc2)C(=O)O)NC(=O)CNC(=O)[C@H](CC(C)C)NC(=O)CNC(=O)[C@H](CO)NC(=O)[C@H](CCC(N)=O)NC(=O)[C@H](C)NC(=O)CNC1=O` [ANF15, reference compound] showed a half-life at 0.5 mg/ml of 2.75 h.

Source of the values: patent US5665704A, “Receptor specific atrial natriuretic peptides” (Genentech, Inc., priority 1995, dated 1997).
